Consider two molecules from ChEMBL document CHEMBL5036350, “Binding site comparison for coumarin inhibitors and amine/amino acid activators of human carbonic anhydrases” (Eur J Med Chem, 2021).

Protein sequences, listed by entry. Tags and fused reporters are not part of them. Lines headed by an entry give the natural chain unless they say otherwise; changes in a name come on top.
UniProt Q9Y2D0: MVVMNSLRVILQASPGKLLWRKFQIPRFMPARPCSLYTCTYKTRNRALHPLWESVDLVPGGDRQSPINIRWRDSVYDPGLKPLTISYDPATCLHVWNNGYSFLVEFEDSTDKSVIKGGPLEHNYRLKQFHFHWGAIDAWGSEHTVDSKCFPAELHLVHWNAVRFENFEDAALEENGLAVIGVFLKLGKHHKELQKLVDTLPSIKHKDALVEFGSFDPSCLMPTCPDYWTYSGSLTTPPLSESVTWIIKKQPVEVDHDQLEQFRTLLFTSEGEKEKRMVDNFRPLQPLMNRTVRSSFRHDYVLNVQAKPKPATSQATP
UniProt P43166: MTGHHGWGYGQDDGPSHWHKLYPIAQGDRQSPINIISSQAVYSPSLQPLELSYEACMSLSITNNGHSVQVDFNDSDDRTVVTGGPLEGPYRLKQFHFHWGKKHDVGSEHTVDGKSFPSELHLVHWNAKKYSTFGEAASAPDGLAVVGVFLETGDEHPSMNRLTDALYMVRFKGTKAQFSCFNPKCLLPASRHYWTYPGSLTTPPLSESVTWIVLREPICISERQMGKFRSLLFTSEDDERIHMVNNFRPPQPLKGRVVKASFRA
UniProt Q8N1Q1: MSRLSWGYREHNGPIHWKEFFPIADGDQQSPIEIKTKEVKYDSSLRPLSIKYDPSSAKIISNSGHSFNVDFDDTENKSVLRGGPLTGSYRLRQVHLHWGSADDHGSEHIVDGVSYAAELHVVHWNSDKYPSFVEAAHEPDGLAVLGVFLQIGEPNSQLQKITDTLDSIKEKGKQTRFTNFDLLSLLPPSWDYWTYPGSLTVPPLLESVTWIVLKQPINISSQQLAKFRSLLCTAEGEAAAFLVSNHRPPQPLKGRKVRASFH

Common to all, as to settings: filed as activator
Assay [1] has as its target Carbonic anhydrase 5B, mitochondrial (Homo sapiens) (UniProt Q9Y2D0). Briefly: Activation of human carbonic anhydrase 5B by stopped flow assay.
Assay [2] addresses Carbonic anhydrase 7 (Homo sapiens) (UniProt P43166). Description: Activation of human carbonic anhydrase 7 by stopped flow assay.
In assay [3] the target is Carbonic anhydrase 13 (Homo sapiens) (UniProt Q8N1Q1). Description: Activation of human carbonic anhydrase 13 by stopped flow assay.
Assay [4] concerns the target Carbonic anhydrase 2 (Homo sapiens) (UniProt P00918). Briefly: Activation of human carbonic anhydrase 2 by stopped flow assay.

Turning to `N[C@@H](Cc1ccccc1)C(=O)O`, the KA in assay [1] is 10 µM; in assay [2], 10 µM; in assay [3] it was 1 µM.

Regarding `N[C@H](Cc1ccccc1)C(=O)O`, the KA in assay [4] came out at 0.03 µM; in assay [3], 0.05 µM.
